Data as given in US20120202856A1, “SUBSTITUTED BENZIMDAZOLE DERIVATIVES USEFUL AS TRPM8 RECEPTOR MODULATORS” (priority 2011, published 2012).

Protein sequences, listed by entry. Tags and fused reporters are not part of them. Residues count along the entry.
UniProt Q1A7N1, 1-1104: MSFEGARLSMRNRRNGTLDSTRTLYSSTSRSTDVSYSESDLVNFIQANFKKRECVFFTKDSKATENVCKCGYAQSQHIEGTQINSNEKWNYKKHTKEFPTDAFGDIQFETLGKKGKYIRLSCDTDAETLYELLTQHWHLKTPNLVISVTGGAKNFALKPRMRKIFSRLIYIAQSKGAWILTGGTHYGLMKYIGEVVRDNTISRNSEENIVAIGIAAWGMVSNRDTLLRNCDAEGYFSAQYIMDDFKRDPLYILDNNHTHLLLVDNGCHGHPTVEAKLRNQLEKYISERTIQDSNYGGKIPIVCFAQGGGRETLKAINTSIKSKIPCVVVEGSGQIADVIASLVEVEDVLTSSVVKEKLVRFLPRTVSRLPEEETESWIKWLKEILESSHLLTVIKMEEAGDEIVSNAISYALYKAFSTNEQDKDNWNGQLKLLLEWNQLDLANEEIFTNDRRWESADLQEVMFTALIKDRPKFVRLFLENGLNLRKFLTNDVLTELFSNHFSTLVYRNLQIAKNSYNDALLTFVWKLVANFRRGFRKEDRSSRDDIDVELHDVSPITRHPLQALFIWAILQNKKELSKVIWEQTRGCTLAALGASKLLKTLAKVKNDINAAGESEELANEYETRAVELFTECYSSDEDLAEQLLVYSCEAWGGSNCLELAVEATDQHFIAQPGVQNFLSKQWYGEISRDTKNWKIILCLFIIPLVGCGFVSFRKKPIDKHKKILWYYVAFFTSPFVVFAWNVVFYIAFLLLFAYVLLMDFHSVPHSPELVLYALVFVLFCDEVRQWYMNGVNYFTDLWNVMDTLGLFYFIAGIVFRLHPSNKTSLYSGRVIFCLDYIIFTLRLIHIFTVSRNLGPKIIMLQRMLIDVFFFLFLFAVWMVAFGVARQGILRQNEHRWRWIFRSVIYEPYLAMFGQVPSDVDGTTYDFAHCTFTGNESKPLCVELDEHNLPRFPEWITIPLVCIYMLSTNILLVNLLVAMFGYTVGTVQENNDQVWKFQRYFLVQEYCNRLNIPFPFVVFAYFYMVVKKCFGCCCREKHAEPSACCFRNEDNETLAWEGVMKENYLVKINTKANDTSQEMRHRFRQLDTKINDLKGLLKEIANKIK

Target: T1, canine TRPM8 (Canis lupus familiaris, UniProt Q1A7N1)
T1 construct: expressed in transfected cells
Test: In Vitro Canine TRPM8 Functional Assay (intracellular Ca2+ fluorescence, icilin activation, HEK293 cells)
Assay type: cell-based
Settings: for IC50: HEK293 cells expressing canine TRPM8, icilin activation, individually measured values (batches/salt forms), read-out: IC50 (nM), in vitro TRP M8 Activity; for inhibition at 0.2 µM: HEK293, read-out: % Inh (%) @0.2 μM, in vitro TRP M8 Activity, 0.2 μM test compound
Protocol: The changes in fluorescent signal were monitored by a fluorescence plate reader, either a FLIPR™ (Molecular Devices) or FDSS (Hamamatsu). […] Cells were maintained in 5% CO2 at 37° C. At 24 hr prior to assay, cells were seeded in black wall, clear-base poly-D-lysine coated 384-well plates (BD Biosciences, NJ, USA) at a density of 5,000 cells per well in culture medium and grown overnight in 5% CO2 at 37° C. On assay day, growth media was removed, and cells were loaded with Calcium 3 Dye (Molecular Devices) for 35 min at 37° C., under 5% CO2 and then incubated for 25 min at room temperature and atmosphere. Subsequently, cells were tested for agonist-induced increases in intracellular Ca^2+ levels using FLIPR™ or FDSS. […] Maximal fluorescence intensity (FI) achieved upon addition of icilin was exported from the FLIPR™ or FDSS software and further analyzed using GraphPad Prism 3.02 (Graph Pad Software Inc., CA, U.S.A.). Basal FI was subtracted prior to normalizing data to percent of maximal response. Curves were generated using the average of quadruplicate wells for each data point using nonlinear regression of either sigmoidal dose response or sigmoidal dose response (variable slope). Finally, IC50 values were calculated with the best-fit curve determined by GraphPad Prism

Work on `COc1ccccc1-c1ccc2[nH]c(-c3cc(C(C)(C)C)nn3C)nc2c1` [Compound 12, 2-(5-tert-Butyl-2-methyl-2H-pyrazol-3-yl)-5-(2-methoxyphenyl)-1H-benzimidazole sodium salt] yielded an IC50 of 13 nM.

For `Cn1nc(C(C)(C)C)cc1-c1nc2cc(-c3c(F)cccc3C(F)(F)F)ccc2[nH]1` [Compound 61, 2-(5-tert-Butyl-2-methyl-2H-pyrazol-3-yl)-5-(2-fluoro-6-trifluoromethylphenyl)-1H-benzimidazole sodium salt], the IC50 was 13 nM.

With `Cn1nc(C(C)(C)C)c(C#N)c1-c1nc2cc(-c3c(F)cccc3F)cc(C(F)(F)F)c2[n-]1.[Na+]` [Compound 151, 3-tert-Butyl-5-[5-(2,6-difluoro-phenyl)-7-trifluoromethyl-1H-benzimidazol-2-yl]-1-methyl-1H-pyrazole-4-carbonitrile sodium salt] the “% Inh (%) @0.2 μM, in vitro TRP M8 Activity” value (0.2 μM test compound, individually measured values) was 100, 100% and the inhibition at 0.2 µM (individually measured values) was 100%.

`CC(C)(C)c1nnc(-c2nc3cc(-c4ccccc4C(F)(F)F)cc(C(F)(F)F)c3[nH]2)o1` [Compound 190, 2-(5-tert-Butyl-[1,3,4]oxadiazol-2-yl)-7-trifluoromethyl-5-(2-trifluoromethyl-phenyl)-1H-benzimidazole sodium salt] gave an inhibition at 0.2 µM (individually measured values) of 101%.

In the case of `Cn1nc(C(C)(C)C)nc1-c1nc2cc(-c3ccccc3C(F)(F)F)cc(C(F)(F)F)c2[nH]1` [Compound 192, 2-(5-tert-Butyl-2-methyl-2H-[1,2,4]triazol-3-yl)-7-trifluoromethyl-5-(2-trifluoromethyl-phenyl)-1H-benzimidazole sodium salt], the inhibition at 0.2 µM (individually measured values) is reported as 86%.

Counter-ions that a name gives are not always drawn.
